## Yeast mating assay B: variants of the scFv Ab-14

All variants were tested on one target, the spike HR2 peptide PDVDLGDISGINAS (SARS-CoV-2).

Each scFv is VH, a 15-residue (Gly4Ser)3 linker, VL, as in the parent Ab-14, and differs from it in the CDRs of the heavy chain only.
VH: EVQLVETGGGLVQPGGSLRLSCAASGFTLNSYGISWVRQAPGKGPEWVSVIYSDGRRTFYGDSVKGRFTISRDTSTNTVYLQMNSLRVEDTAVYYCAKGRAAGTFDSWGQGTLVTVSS
VL: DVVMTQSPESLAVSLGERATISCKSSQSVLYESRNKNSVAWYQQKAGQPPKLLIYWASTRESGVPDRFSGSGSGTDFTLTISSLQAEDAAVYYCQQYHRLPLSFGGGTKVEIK

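The starting antibody came from a phage panning campaign against this peptide. Designed CDR sequences, proposed from the first random library and measured here. Group labels follow the data file (En: ensemble of fine-tuned language models; HC: hill climbing; Gen: genetic algorithm; Gibbs: Gibbs sampling; a sequence that several methods proposed may carry one label only). The assay is AlphaSeq: two haploid yeast populations carry antibody and antigen on their surface. Pairs that bind mate more often; barcode pairs of the diploids are counted by sequencing. Read counts were normalised to the haploid input and turned into Kd by a linear fit to BCL2-family pairs of known affinity, for each replicate. Each pool was mated in six replicate cultures.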

Variants are written as CDR1, CDR2 and CDR3 of the heavy chain (limits as in the source). Parent: GFTLNSYGIS, VIYSDGRRTFYGDSVK, GRAAGTFDS. This list holds designs with more than six substitutions. Each Kd is an estimate from the mating assay, the geometric mean of the replicates in which the pair was seen; lower is stronger. "no signal" means that the variant was in the library but no mating with the target was seen in any replicate; the authors take this as a sign of poor binding, and no number exists. The range of this assay differs from that of the first round, and the authors advise against merging the two. Empty control strains, which show no peptide, gave a signal in 1% of pairings with all heavy chain designs; the median was 120 nM and 95% of these signals were weaker than 7.0 nM. No background was subtracted. In the paper, a design with two or fewer of six values counts as a poor binder.

For GFELSEYGIS / VIYADGHRSFVTDDVK / GQNAGAFNV [En_Gibbs], the assay gave 190 nM (1 of 6 replicates).
For GFDLNEYGIS / VIYADGRRTAYIDSVK / GHLAGTFDV [En_HC], the assay gave 540 pM (6 of 6 replicates).
For GFDLNEYGIS / VIYADGRRTFYADSVK / GEEAGTFDF [En_HC], the assay gave 840 pM (6 of 6 replicates).
For GFNLDEYGIS / VIYADGRRTFYIDSVK / GEVAGTFDF [En_HC], the assay gave 10 nM (6 of 6 replicates).
For GFSLNEYGIS / VIYADGIRQHYKDKVK / GVVFGNVLF [En_Gibbs], the assay gave no signal (0 of 6 replicates).
For GFDLNEYGIS / VIYADGSRKAYADSVK / GNVAGTFDV [En_Gen], the assay gave 690 pM (6 of 6 replicates).
For GFDLNEYGIS / VIYADGVRTFYADSVK / GQIAGTFDQ [En_HC], the assay gave 1.3 nM (6 of 6 replicates).
For GFDLNEYGIS / VIYADGRRTFYADSVK / GNLAGTFNV [En_HC], the assay gave 86 pM (6 of 6 replicates).
For GFDLNEYGIS / VIYADGRRTFYQDSVK / GENAGTFDQ [En_HC], the assay gave 500 pM (6 of 6 replicates).
For GFDLNEYGIS / VIYADGRRTAYLDSVK / GEAAGTFDN [En_HC], the assay gave 110 pM (6 of 6 replicates).
For GFDLNEYGIS / VIYADGRRTFYDDSVK / GKVAGTFDQ [En_HC], the assay gave 480 pM (6 of 6 replicates).
For GFDINEYGIS / VIYADGRRTFYADSVK / GQVAGTFDS [En_HC], the assay gave 3.0 nM (1 of 6 replicates).
For GFDLDEYGIS / VIYADGNRQVYQDNVK / GGRFVTNIV [En_Gibbs], the assay gave no signal (0 of 6 replicates).
For GFSIDEYGIS / VIYADGMRTATVNSVK / GTIDNNITT [En_Gibbs], the assay gave 9.3 nM (6 of 6 replicates).
For GFDLNEYGIS / VIYADGVRTAYADSVK / GNVAGTFDA [En_Gen], the assay gave 270 pM (6 of 6 replicates).
For GFDIEDYGIS / VIYADGKRSAYSNSFK / GLMAGNMGV [En_Gibbs], the assay gave no signal (0 of 6 replicates).
For GFDLNEYGIS / VIYADGVRKSYADSVK / GENAGTFDV [En_Gen], the assay gave 590 pM (6 of 6 replicates).
For GFNLNEYGIS / VIYADGRRTFYADSVK / GQEAGTFDM [En_HC], the assay gave 110 pM (6 of 6 replicates).
For GFDLDEYGIS / VIYADGMRTFYADSVK / GNIAGTFDK [En_HC], the assay gave 270 pM (6 of 6 replicates).
For GFDLEEYGIS / VIYADGMRQYAIDNVK / GLISGKGKT [En_Gibbs], the assay gave no signal (0 of 6 replicates).
For GFDLNEYGIS / VIYADGKRTAYADSVK / GGNAGTFDM [En_Gen], the assay gave 1.0 nM (6 of 6 replicates).
For GFDLNEYGIS / VIYADGRRTAYSDSVK / GTNGGTFDM [En_HC], the assay gave 840 pM (6 of 6 replicates).
For GFDLNEYGIS / VIYADGERTAYADSVK / GNVAGTFDV [En_Gen], the assay gave 410 pM (6 of 6 replicates).
For GFDLNEYGIS / VIYADGRRTAYMDSVK / GTNAGTFDQ [En_HC], the assay gave 690 pM (6 of 6 replicates).
For GFDIDEYGIS / VIYADGMRTFYTDSVK / GENAGTFDA [En_HC], the assay gave 230 pM (6 of 6 replicates).
For GFDLNEYGIS / VIYADGRRTAYIDSVK / GEIAGTFDI [En_HC], the assay gave 800 pM (6 of 6 replicates).
For GFSLDEYGIS / VIYADGVRKSYMNSVK / GNITGWLFA [En_Gibbs], the assay gave no signal (0 of 6 replicates).
For GFDLQEYGIS / VIYADGARKSYTNSVK / GVWGTTMSV [En_Gibbs], the assay gave no signal (0 of 6 replicates).
For GEDLNEYGIS / VIYADGQRTYYDNSVK / GKFAGSFFH [En_Gibbs], the assay gave no signal (0 of 6 replicates).
For EFDLNEYGIS / VIYADGKRTFYAEHVK / GTNAGVFDT [En_Gibbs], the assay gave 42 nM (6 of 6 replicates).
For GQNLEEYGIS / VIYADGKRNAYSNNVK / GQGGAVLVD [En_Gibbs], the assay gave 7.9 nM (1 of 6 replicates).
For GFDLNEYGIS / VIYADGQRRAYSQSVK / GHGEDLYLD [En_Gibbs], the assay gave 86 nM (4 of 6 replicates).
For GFDLDEYGIS / VIYADGRRTAYADSVK / GTNAGTFDI [En_Gen], the assay gave 600 pM (6 of 6 replicates).
For GFDLNEYGIS / VIYADGRRTFYTDSVK / GQLAGTFDE [En_HC], the assay gave 160 pM (6 of 6 replicates).
For GFDLNEYGIS / VIYADGMRTFYADDVK / GNTAGTFDI [En_Gen], the assay gave 400 pM (6 of 6 replicates).

The opening 6 entries, copied out:

| CDR-H1 | CDR-H2 | CDR-H3 | group | apparent Kd | seen in |
|---|---|---|---|---|---|
| GFELSEYGIS | VIYADGHRSFVTDDVK | GQNAGAFNV | En_Gibbs | 190 nM | 1 of 6 |
| GFDLNEYGIS | VIYADGRRTAYIDSVK | GHLAGTFDV | En_HC | 540 pM | 6 of 6 |
| GFDLNEYGIS | VIYADGRRTFYADSVK | GEEAGTFDF | En_HC | 840 pM | 6 of 6 |
| GFNLDEYGIS | VIYADGRRTFYIDSVK | GEVAGTFDF | En_HC | 10 nM | 6 of 6 |
| GFSLNEYGIS | VIYADGIRQHYKDKVK | GVVFGNVLF | En_Gibbs | no signal | 0 of 6 |
| GFDLNEYGIS | VIYADGSRKAYADSVK | GNVAGTFDV | En_Gen | 690 pM | 6 of 6 |

Data: MIT Lincoln Laboratory AlphaSeq set, Li et al. 2023, doi:10.1038/s41467-023-39022-2, as distributed in FLAb.